Source: PMC5514503

Biological target: T1, Flag-β-catenin, P35222
T1 chain: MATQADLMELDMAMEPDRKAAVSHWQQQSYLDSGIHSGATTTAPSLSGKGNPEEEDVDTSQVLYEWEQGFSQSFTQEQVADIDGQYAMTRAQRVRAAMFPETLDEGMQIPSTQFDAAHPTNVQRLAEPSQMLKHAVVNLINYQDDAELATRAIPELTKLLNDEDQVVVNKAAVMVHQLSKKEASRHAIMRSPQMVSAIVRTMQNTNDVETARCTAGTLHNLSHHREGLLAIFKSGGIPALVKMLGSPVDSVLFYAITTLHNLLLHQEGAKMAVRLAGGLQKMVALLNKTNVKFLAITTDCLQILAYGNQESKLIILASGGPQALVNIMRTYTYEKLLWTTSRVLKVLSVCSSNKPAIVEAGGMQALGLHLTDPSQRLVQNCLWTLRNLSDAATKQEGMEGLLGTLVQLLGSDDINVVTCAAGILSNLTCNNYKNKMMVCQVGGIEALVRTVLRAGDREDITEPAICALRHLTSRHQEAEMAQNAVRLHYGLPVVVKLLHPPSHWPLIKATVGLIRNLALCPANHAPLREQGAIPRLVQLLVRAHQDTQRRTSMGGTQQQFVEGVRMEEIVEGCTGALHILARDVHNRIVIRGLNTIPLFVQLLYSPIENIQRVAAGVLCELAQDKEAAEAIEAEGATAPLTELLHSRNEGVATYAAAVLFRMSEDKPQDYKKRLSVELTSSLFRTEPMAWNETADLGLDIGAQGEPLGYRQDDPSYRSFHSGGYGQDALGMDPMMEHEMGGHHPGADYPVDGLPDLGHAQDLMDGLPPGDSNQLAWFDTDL
Assay: co-IP; HEK-293T cells co-transfected with the indicated plasmids; nuclear protein extracts incubated with anti-FLAG M2 or anti-c-Myc magnetic beads at 4 °C overnight, washed with TBS, eluted, western blot; in Fig. 6c with or without co-expressed FOXP3
Conditions: remark: other sources report otherwise

B1: Myc-TCF4, Q9NQB0 1-619 (natural protein)
chain: MPQLNGGGGDDLGANDELISFKDEGEQEEKSSENSSAERDLADVKSSLVNESETNQNSSSDSEAERRPPPRSESFRDKSRESLEEAAKRQDGGLFKGPPYPGYPFIMIPDLTSPYLPNGSLSPTARTLHFQSGSTHYSAYKTIEHQIAVQYLQMKWPLLDVQAGSLQSRQALKDARSPSPAHIVSNKVPVVQHPHHVHPLTPLITYSNEHFTPGNPPPHLPADVDPKTGIPRPPHPPDISPYYPLSPGTVGQIPHPLGWLVPQQGQPVYPITTGGFRHPYPTALTVNASMSRFPPHMVPPHHTLHTTGIPHPAIVTPTVKQESSQSDVGSLHSSKHQDSKKEEEKKKPHIKKPLNAFMLYMKEMRAKVVAECTLKESAAINQILGRRWHALSREEQAKYYELARKERQLHMQLYPGWSARDNYGKKKKRKRDKQPGETNEHSECFLNPCLSLPPITDLSAPKKCRARFGLDQQNNWCGPCRRKKKCVRYIQGEGSCLSPPSSDGSLLDSPPPSPNLLGSPPRDAKSQTEQTQPLSLSLKPDPLAHLSMMPPPPALLLAEATHKASALCPNGALDLPPAALQPAAPSSSIAQPSTSSLHSHSSLAGTQPQPLSLVTKSLE
fold increase of the co-precipitate when FOXP3 was co-expressed (against no FOXP3): 1.45 fold
